# scFv variants of Ab-91 (heavy chain) against a SARS-CoV-2 spike peptide

Reference: Engelhart et al. 2022, doi:10.1038/s41597-022-01779-4. File: FLAb, binding data.

Antigen: PDVDLGDISGINAS, a 14-residue peptide of the SARS-CoV-2 spike HR2 region.

Parent: Ab-91, a human scFv built as VL, a (GGGGS)3 linker, VH. Only the CDRs of the heavy chain vary.
VL: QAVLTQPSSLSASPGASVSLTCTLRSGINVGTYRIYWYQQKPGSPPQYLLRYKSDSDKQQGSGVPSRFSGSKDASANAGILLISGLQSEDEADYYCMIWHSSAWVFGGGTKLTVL
VH: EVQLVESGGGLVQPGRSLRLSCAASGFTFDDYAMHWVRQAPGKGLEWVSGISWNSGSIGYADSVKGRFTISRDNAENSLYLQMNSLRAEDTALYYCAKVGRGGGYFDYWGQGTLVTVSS

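Phage display of a naive human antibody library on the peptide gave the parent. Library AAYL51 holds single substitutions and randomly drawn double and triple substitutions in the CDRs. AlphaSeq pools MATa yeast showing the antibodies with MATalpha yeast showing the peptide. Binding brings cells together so that they mate, and sequencing counts the barcode pairs among the diploids. A regression on co-assayed BCL2-family reference pairs converts the normalised counts of each replicate to an apparent Kd. There are three technical replicates.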

Substitutions are numbered in sequence along the VH above, starting at 1 (not Kabat).
Every variant below is changed at N54 of the VH (sequential numbering).
Affinities are written as log10 Kd with Kd in nM; a lower number is a better binder.
A mean of the replicates is given; it leaves out those without a signal.
An entry "no signal" has no value in the source: the pair was not observed among the diploids in any replicate. This suggests poor binding but is not conclusive.
Entries are sorted by rising average, undetected variants last.

- N54D+I58K+Y108L -> 0.06 (3 of 3 replicates; controls 6 of 9)
- T28K+N54D+Y105N -> 2.14 (3 of 3 replicates; controls 3 of 9)
- N54D+K65M+V99K -> 2.36 (3 of 3 replicates; controls 4 of 9)
- N54G+R101P+Y108E -> 2.55 (3 of 3 replicates; controls 5 of 9)
- N54I+R101M+G104R -> 2.92 (1 of 3 replicates; controls 0 of 9)
- N54Q+A61K+Y105T -> 3.72 (1 of 3 replicates; controls 0 of 9)
- F29V+N54K+G100R -> 3.73 (1 of 3 replicates; controls 1 of 9)
- N54V+D62Q+G103D -> 4.00 (2 of 3 replicates; controls 1 of 9)
- N54C+G56Q -> 4.07 (1 of 3 replicates; controls 0 of 9)
- N54A+A61T+G104N -> 4.16 (1 of 3 replicates; controls 4 of 9)
- N54V+D107W -> 4.55 (1 of 3 replicates; controls 0 of 9)
- N54I+S57Y+G100P -> 4.69 (2 of 3 replicates; controls 8 of 9)
- N54Q+Y105I+F106L -> 4.72 (2 of 3 replicates; controls 2 of 9)
- N54M+S63D+V99D -> 4.85 (2 of 3 replicates; controls 5 of 9)
- S52E+N54G+G104N -> 4.88 (1 of 3 replicates; controls 1 of 9)
- H35S+N54H+G102S -> 4.90 (2 of 3 replicates; controls 3 of 9)
- D30Y+N54M+F106A -> 4.92 (2 of 3 replicates; controls 3 of 9)
- F29V+N54I+G59M -> 5.00 (3 of 3 replicates; controls 3 of 9)
- D31P+N54A+V99L -> 5.01 (3 of 3 replicates; controls 4 of 9)
- M34A+N54I+A61V -> 5.13 (2 of 3 replicates; controls 4 of 9)
- N54K+A61C+S63D -> 5.17 (1 of 3 replicates; controls 2 of 9)
- N54P+Y105W+F106E -> 5.18 (2 of 3 replicates; controls 4 of 9)
- N54S+S57Y+I58P -> 5.37 (2 of 3 replicates; controls 5 of 9)
- F29Q+N54P+V64R -> 5.62 (2 of 3 replicates; controls 2 of 9)
- Y32F+N54A+G100N -> no signal (0 of 3 replicates; controls 1 of 9)
- N54I+Y60E+G100E -> no signal (0 of 3 replicates; controls 0 of 9)
- G26Q+T28L+N54C -> no signal (0 of 3 replicates; controls 3 of 9)
- N54K+S55I+A61T -> no signal (0 of 3 replicates; controls 0 of 9)
- D31Q+W53H+N54T -> no signal (0 of 3 replicates; controls 0 of 9)
- N54V -> no signal (0 of 3 replicates; controls 1 of 9)
- N54I+D62C+F106V -> no signal (0 of 3 replicates; controls 3 of 9)
- N54F+V99K+G103V -> no signal (0 of 3 replicates; controls 1 of 9)
- N54M+I58G+Y60S -> no signal (0 of 3 replicates; controls 0 of 9)
- G26F+W53Q+N54Y -> no signal (0 of 3 replicates; controls 3 of 9)
- N54P+I58V+R101T -> no signal (0 of 3 replicates; controls 0 of 9)
- N54F+S63H+F106S -> no signal (0 of 3 replicates; controls 0 of 9)
- Y32H+N54V+K65G -> no signal (0 of 3 replicates; controls 1 of 9)
- N54H+V64G -> no signal (0 of 3 replicates; controls 1 of 9)
- N54I+I58L+Y108Q -> no signal (0 of 3 replicates; controls 1 of 9)
- S52M+N54V+G56A -> no signal (0 of 3 replicates; controls 0 of 9)
- N54K+V99K+G102N -> no signal (0 of 3 replicates; controls 0 of 9)
- S52G+N54L+S55L -> no signal (0 of 3 replicates; controls 1 of 9)
- N54G+G103V+D107G -> no signal (0 of 3 replicates; controls 1 of 9)
- F27D+N54P -> no signal (0 of 3 replicates; controls 0 of 9)
- F27H+N54S+D107I -> no signal (0 of 3 replicates; controls 0 of 9)
- N54Q+Y60D+D107L -> no signal (0 of 3 replicates; controls 0 of 9)
- A33H+N54Y+Y60H -> no signal (0 of 3 replicates; controls 4 of 9)
- G50V+N54A+S57W -> no signal (0 of 3 replicates; controls 0 of 9)
- F27W+N54I+V99Y -> no signal (0 of 3 replicates; controls 1 of 9)
- F27Y+N54P+V64F -> no signal (0 of 3 replicates; controls 1 of 9)

The first 7 entries again:

changes	mean, log10 nM	replicates with signal	control signals
N54D+I58K+Y108L	0.06	3/3	6/9
T28K+N54D+Y105N	2.14	3/3	3/9
N54D+K65M+V99K	2.36	3/3	4/9
N54G+R101P+Y108E	2.55	3/3	5/9
N54I+R101M+G104R	2.92	1/3	0/9
N54Q+A61K+Y105T	3.72	1/3	0/9
F29V+N54K+G100R	3.73	1/3	1/9

As a blank, each scFv also met three strains without target: over library AAYL51, 21% of these pairings were detected, typically at 4.54 and seldom below 3.26. The control count says in how many pairings with the empty strains this scFv gave a signal.